Data taken from article PMC5236087, “A Generic Multi-Compartmental CNS Distribution Model Structure for 9 Drugs Allows Prediction of Human Brain Target Site Concentrations” (Pharmaceutical Research, 2016).
Marks after values point to notes of the source that are not given here.

Tests used:
[1] = Multi-compartmental brain PK model fitted to rat plasma and microdialysis (brainECF, CSF) data; conditions: parameter estimate (RSE, %)
P-gp = conditions: rat
[2] = cited from earlier work

In the case of `Cc1nc2n(c(=O)c1CCN1CCC(c3noc4cc(F)ccc34)CC1)CCCC2` [Risperidone], the “QDIFF, drug dispersion rate in brain and CSF” value [1] is reported as 0.0254 (15.0) mL/min, the “VPL, distribution volume of the central compartment” value [1] is reported as 60000 (13.0) mL and the “increase of QPL_ECF in the presence of P-gp inhibitors” value (P-gp) is reported as 124%. For the same molecule, the “Impact of active transport on QPL_ECF (covariate effect of inhibitor)” value (P-gp; with GF120918 or tariquidar, estimate (RSE, %)) was 1.24 (16.3)^b and the “pKa (Base)” value [2] was 8.8.
